Reference: article PMC5908301, “Small molecule CXCR4 antagonists block the HIV-1 Nef/CXCR4 axis and selectively initiate the apoptotic program in breast cancer cells” (Oncotarget, 2018)

By UniProt entry, the sequences of proteins in these tests, tags left out.
UniProt P61073, whole entry: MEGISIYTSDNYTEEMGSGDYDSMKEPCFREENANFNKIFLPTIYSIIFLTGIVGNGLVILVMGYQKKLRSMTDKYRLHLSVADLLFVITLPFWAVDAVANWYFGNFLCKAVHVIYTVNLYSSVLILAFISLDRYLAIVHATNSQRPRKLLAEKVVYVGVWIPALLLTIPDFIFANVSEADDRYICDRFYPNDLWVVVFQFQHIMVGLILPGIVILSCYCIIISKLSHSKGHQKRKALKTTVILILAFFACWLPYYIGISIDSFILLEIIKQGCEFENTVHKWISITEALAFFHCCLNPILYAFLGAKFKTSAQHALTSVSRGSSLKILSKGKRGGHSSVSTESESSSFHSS

Target: CXCR4 (Homo sapiens, UniProt P61073)
Experiment: Calcium flux induced by SDF-1α in human CXCR4-expressing Chem-1 cell line
Assay type: cell-based
Design: human CXCR4–expressing (full length cDNA) Chem-1 cell line; expressed in transfected cells; host or cells: Chem-1 cell line
Details: Fluo-4, FLIPR; read-out: EC50 for calcium mobilization

EC50: ~4 nM
Substance: SDF-1α
